For the assay, the target named is T1, acetylcholinesterase (AChE) from electric eels (type V-S) (Electrophorus electricus, UniProt O42275).
T1 construct: purchased Sigma-Aldrich (St. Louis, MO, USA) type V-S (catalogue number not given)
Briefly: Acetylcholinesterase (AChE) inhibitory assay, modified Ellman's colorimetric method, 96-well microplate. The format is biochemical. For orientation: Ellman's reagent forms a yellow product with free thiols.

Sequences of proteins named here, by UniProt entry; tags and fusion partners are left off. Residues count along the entry.
UniProt O42275, 24-633: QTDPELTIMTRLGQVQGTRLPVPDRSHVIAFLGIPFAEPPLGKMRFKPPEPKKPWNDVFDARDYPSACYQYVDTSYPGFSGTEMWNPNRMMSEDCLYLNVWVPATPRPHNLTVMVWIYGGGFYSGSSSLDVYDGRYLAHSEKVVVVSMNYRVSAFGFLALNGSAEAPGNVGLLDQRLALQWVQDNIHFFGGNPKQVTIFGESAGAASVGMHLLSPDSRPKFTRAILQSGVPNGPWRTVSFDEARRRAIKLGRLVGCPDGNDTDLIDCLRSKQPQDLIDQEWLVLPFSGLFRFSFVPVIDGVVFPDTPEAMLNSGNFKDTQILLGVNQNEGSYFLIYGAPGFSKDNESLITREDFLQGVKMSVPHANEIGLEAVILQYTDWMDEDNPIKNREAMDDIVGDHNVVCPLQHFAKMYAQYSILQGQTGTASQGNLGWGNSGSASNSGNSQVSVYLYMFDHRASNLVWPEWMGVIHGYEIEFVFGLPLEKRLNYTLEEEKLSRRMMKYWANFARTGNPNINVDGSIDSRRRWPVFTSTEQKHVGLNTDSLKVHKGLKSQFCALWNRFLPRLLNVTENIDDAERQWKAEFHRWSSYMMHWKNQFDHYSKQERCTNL

Broadly, the IC50 is the concentration that inhibits the measured activity by half. Read a low IC50 as higher potency.

In the case of `CNC(=O)Oc1ccc2c(c1)[C@]1(C)CCN(C)[C@@H]1N2C` [Physostigmine, reference compound], the midpoint of inhibition, the IC50, lay at 31.4 ± 0.5 µM.
